Assay [1] addresses Cannabinoid receptor 1 (Mus musculus, UniProt P47746). Description: Binding affinity towards Cannabinoid receptor 1 was determined using [3H]-CP- cannabinoid as radioligand with mouse brain membrane in the presence of PMSF.
Assay [2] has as its target Cannabinoid receptor 1 (Rattus norvegicus, UniProt P20272). Description: Binding affinity towards Cannabinoid receptor 1 was determined using [3H]-CP- cannabinoid as radioligand with rat brain membrane in the presence of PMSF.

By UniProt entry, the sequences of proteins in these tests, tags left out.
UniProt P47746, whole entry: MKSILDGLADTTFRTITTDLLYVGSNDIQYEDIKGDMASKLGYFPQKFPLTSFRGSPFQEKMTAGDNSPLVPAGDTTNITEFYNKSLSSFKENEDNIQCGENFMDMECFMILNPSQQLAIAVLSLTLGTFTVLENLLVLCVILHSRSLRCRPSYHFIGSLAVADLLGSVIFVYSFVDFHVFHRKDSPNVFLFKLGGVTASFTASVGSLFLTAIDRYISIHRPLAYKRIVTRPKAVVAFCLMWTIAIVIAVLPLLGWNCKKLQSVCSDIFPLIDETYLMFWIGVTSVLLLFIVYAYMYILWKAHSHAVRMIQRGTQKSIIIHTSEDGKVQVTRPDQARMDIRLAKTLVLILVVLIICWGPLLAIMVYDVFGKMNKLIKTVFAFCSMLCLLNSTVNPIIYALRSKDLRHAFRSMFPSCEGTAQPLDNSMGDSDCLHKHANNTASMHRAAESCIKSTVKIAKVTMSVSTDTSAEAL
UniProt P20272, whole entry: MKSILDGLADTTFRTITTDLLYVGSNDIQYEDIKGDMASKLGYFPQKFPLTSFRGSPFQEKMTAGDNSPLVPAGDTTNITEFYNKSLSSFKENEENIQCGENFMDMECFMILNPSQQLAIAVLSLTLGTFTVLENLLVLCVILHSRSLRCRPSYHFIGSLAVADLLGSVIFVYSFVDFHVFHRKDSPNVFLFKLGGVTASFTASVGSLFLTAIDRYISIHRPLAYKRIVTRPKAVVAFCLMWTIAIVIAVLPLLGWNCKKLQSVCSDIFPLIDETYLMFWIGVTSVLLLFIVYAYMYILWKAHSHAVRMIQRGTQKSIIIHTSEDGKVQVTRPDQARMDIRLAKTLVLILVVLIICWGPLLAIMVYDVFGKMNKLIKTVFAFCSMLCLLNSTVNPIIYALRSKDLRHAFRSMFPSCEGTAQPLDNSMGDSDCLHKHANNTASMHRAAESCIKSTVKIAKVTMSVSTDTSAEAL

Usually IC50 stands for the midpoint of a concentration-inhibition curve.

As for `CCCCC/C=C\C/C=C\C/C=C\C/C=C\CCCC(=O)NCCO` [ANANDAMIDE], the 50% inhibitory concentration (IC50) was 39 nM on Cannabinoid receptor 1 [1] and 40 nM at Cannabinoid receptor 1 [2].

For the origin of these results see ChEMBL document CHEMBL1136242, “Arachidonylsulfonyl derivatives as cannabinoid CB1 receptor and fatty acid amide hydrolase inhibitors” (Bioorg Med Chem Lett, 2003).
